Paper PMC8812461, “Synthesis of New 3-Arylcoumarins Bearing N-Benzyl Triazole Moiety: Dual Lipoxygenase and Butyrylcholinesterase Inhibitors With Anti-Amyloid Aggregation and Neuroprotective Properties Against Alzheimer’s Disease” (Frontiers in Chemistry, 2022)

By UniProt entry, the sequences of proteins in these tests, tags left out. Residues count along the entry.
UniProt P05067, 672-711: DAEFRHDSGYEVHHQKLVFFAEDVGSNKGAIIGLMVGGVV

Target: T1, Aβ1-42 in the presence of AChE (Homo sapiens, UniProt P05067)
T1 construct: was used to dissolve amyloid β1-40 (Sigma A1075); purchased Sigma (Aβ); Merck or Aldrich (AChE) A1075 (Aβ)
Assay: AChE-induced Aβ1-42 aggregation (ThT assay)
Type: biochemical
Details: read-out: Inhibition of AChE-induced Aβ1-42 aggregation

COc1cc2c(cc1OC)C(=O)C(CC1CCN(Cc3ccccc3)CC1)C2 (stereo not shown) [Donepezil, donepezil, reference compound]
inhibition at 100 µM: 78.3 ± 5%
